Experiments:
[1] = target: T1, αSyn (Homo sapiens, UniProt P37840); assay: αSyn protofibril formation in vitro; assay type: biochemical; settings: molar ratio 1:2 (DJ-1: αSyn), 2 h at 55° C.
From the text: The analysis of DJ-1 chaperone function to a candidate DJ-1 substrate, αSyn (FIG. 23) was extended. The aggregation of αSyn has been implicated in familial and sporadic forms of PD, as mutations associated with autosomal dominant familial primary Parkinsonism alter the propensity of αSyn to aggregate (Conway et al. 2000a), and as αSyn fibrils are a major constituent of the Lewy body intracytoplasmic inclusions that typify PD pathology (Spillantini et al. 1997). In vitro, monomeric αSyn is disordered or “natively unfolded” in dilute solution (Weinreb et al. 1996). Incubation of purified WT human αSyn for 2 h at 55° C. results in the generation of high molecular weight multimers that likely represent protofibrils (FIGS. 23A and 23B) (Volles et al. 2001; Gosavi et al. 2002).
αSyn protofibril and fibril formation assays were performed essentially as described (Uversky et al.). […] Samples were mixed with SDS loading buffer and analyzed by SDS-PAGE and Western blotting using αSyn LB509 antibody (Zymed). Quantitation of high molecular weight αSyn was performed using NIH Image J. Integrated pixel intensity of high molecular weight synuclein for each sample was normalized to monomeric synuclein intensity. […] Fibril formation was assessed by Congo red (Conway et al. 2000b).

[2] = target: T1, αSyn; assay: αSyn Congo red-positive fibril formation in vitro; assay type: biochemical; settings: 200 μM αSyn, proteins 100 μM, 1 wk at 37° C.
Protocol: Because DJ-1 chaperone activity is effective at inhibiting the accumulation of αSyn protofibrils, the inventors sought to investigate the role of this activity in the generation of Congo red-positive mature fibrils. […] Thus, DJ-1 seems to inhibit formation of αSyn fibrils by preventing formation of αSyn high molecular weight oligomers, or protofibrils.
αSyn protofibril and fibril formation assays were performed essentially as described (Uversky et al.). Briefly, protofibrils were formed by incubation of 200 μM WT synuclein with 100 μM DJ-1 or control chaperone protein in PBS for 2 h at 55° C. Samples were mixed with SDS loading buffer and analyzed by SDS-PAGE and Western blotting using αSyn LB509 antibody (Zymed). Quantitation of high molecular weight αSyn was performed using NIH Image J. Integrated pixel intensity of high molecular weight synuclein for each sample was normalized to monomeric synuclein intensity. For fibril formation, αSyn and chaperone proteins (as described above) were incubated with shaking for 1 wk at 37° C. Fibril formation was assessed by Congo red (Conway et al. 2000b).

B1: L166P DJ-1: Parkinsonism-associated L166P mutant of human DJ-1, recombinant or plasmid-expressed (protein, UniProt Q99497 1-189, looked up, variant L166P)
chain: MASKRALVILAKGAEEMETVIPVDVMRRAGIKVTVAGLAGKDPVQCSRDVVICPDASLEDAKKEGPYDVVVLPGGNLGAQNLSESAAVKEILKEQENRKGLIAAICAGPTALLAHEIGFGSKVTTHPLAKDKMMNGGHYTYSENRVEKDGLILTSRGPGTSFEFAPAIVEALNGKEVAAQVKAPLVLKD
B1 was tested, and the “formation of soluble αSyn protofibrils” value [1] was “failed to inhibit” and the “formation of Congo red-positive αSyn fibrils” value [2] was “did not”.

— patent publication US20060171935A1, “Protecting cell therapy for neurological disorders including Parkinson's disease” (priority 2005, published 2006)
